Values of other authors in US20040197397A1, “Drug delivery system for treatment of urinary incontinence” (Watson Pharmaceuticals, Inc., priority 2002, published 2004).
Counter-ions that a name gives are not always drawn.

Details: oral

In the case of `CCN(CC)CC#CCOC(=O)C(O)(c1ccccc1)C1CCCCC1` (centres unmarked) [Oxybutynin hydrochloride], the “absorption through the intestinal tract” value is given as “good” and the hepatic metabolism is given as “higher hepatic metabolism”.
